ChEMBL document CHEMBL1150372, “Synthesis, fluorine-18 radiolabeling, and in vitro characterization of 1-iodophenyl-N-methyl-N-fluoroalkyl-3-isoquinoline carboxamide derivatives as potential PET radioligands for imaging peripheral benzodiazepine receptor” (Bioorg Med Chem, 2008)

Amino acid sequences for entries named in this document (tags omitted).
UniProt P16257, whole entry, looked up: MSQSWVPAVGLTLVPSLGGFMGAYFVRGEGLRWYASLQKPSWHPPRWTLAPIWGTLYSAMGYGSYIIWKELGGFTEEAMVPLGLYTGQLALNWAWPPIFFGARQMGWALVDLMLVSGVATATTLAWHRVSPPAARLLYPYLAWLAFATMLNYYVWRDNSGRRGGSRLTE

Experiments:
[1] = target: Translocator protein (Rattus norvegicus) (UniProt P16257); experiment: Ratio of Ki of drug to PK11195 for PBR in rat kidney mitochondrial membrane; assay type: cell membranes
[2] = target: Translocator protein (Rattus norvegicus) (UniProt P16257); experiment: Ratio of Ki of drug to Ro54864 for PBR in rat kidney mitochondrial membrane; assay type: cell membranes

Row | Ratio Ki [1] | Ratio Ki [2] | SMILES
1 | 0.46 | 0.54 | CN(CCCF)C(=O)c1cc2ccccc2c(-c2ccc(I)cc2)n1
2 | 0.07 | 0.08 | CN(CCF)C(=O)c1cc2ccccc2c(-c2ccccc2I)n1
3 | 111 | 131 | CN(CCCF)C(=O)c1cc2ccccc2c(-c2ccccc2I)n1
